The entries are a selection whose mix differs from that of the whole data set. The source made the active and inactive calls.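 Rule for the calls: active = inhibition at 20 µM, scaled per plate between control wells, above about 37% (limit read from the data); inactive = the rest.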

Amino acid sequences for entries named in this document (tags omitted). A change or cut given only in a name is not applied to a line headed by its entry.
UniProt P54829: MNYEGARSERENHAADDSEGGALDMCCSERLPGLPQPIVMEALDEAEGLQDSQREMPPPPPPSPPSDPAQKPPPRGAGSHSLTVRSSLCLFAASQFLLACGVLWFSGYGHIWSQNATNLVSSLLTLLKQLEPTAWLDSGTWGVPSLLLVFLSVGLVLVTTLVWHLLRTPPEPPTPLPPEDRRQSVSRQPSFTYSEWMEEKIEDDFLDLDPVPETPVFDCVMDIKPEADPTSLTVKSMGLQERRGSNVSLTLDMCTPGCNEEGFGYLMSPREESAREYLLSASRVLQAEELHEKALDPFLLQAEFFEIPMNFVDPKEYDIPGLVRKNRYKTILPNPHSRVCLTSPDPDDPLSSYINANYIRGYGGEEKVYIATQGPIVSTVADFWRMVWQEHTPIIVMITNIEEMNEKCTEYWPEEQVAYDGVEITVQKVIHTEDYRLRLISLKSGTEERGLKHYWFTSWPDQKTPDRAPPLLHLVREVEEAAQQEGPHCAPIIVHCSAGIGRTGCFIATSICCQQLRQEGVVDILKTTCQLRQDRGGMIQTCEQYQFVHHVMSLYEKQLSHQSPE

The target in the assay is Tyrosine-protein phosphatase non-receptor type 5 (Homo sapiens) (UniProt P54829). The assay is described as follows: STEP phosphatase inhibitors, primary screen, biochemical, fluorescence intensity, uHTS (AID 588621).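 Note: 0% = DMSO with enzyme and substrate and 100% = substrate only without enzyme.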 The conditions noted are these: recombinant STEP, OMFP fluorogenic substrate, at 20 µM, stronger effect = higher value. Summed up:
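System: STEP phosphatase, cell-free reaction; Buffer or medium: Bis-Tris pH 6.0 buffer with DTT, detergent; Incubation: 20 min at room temperature, dark; Measured by: fluorescence, 480/540 nm.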
For the compound `Nc1cccc2ccc([As](=O)(O)O)cc12`, the inhibition (in general, the change of the read-out against control, counted positive when it falls) was inactive: 17.7%.
In the case of `CCN(N=Nc1nonc1N)c1nonc1N`, the inhibition was inactive: 0%.
`Cc1cc(SC(NC(=O)c2ccc(F)cc2)C(Cl)(Cl)Cl)ncn1` (configuration not stated): the inhibition is inactive: -1.1%.
For the compound `CCOP(=O)(Nc1ccccc1)OCC`, the inhibition was inactive: 0.5%.
Under `Cc1ccc(NP(=O)(Oc2ccccc2F)Oc2ccccc2F)nc1` stands inactive: -0.9%; under `CN(C(=O)Cc1ccc(Cl)c(Cl)c1)[C@H]1CCCC[C@@H]1N1CCCC1`, inactive: 1.5%; under `O=P(Nc1nc2ccc(Cl)cc2s1)(c1ccccc1)c1ccccc1`, inactive: 3%.
Under `CN(C)P(=O)(N(C)C)n1c(Nc2ccccc2)nnc1-c1ccccc1` stands inactive: -2.6%; under `CC(=O)Nc1ccc([As](=O)(O)O)cc1`, inactive: 5.8%.
In the case of `O=C(O)c1ccccc1[As](=O)(O)O`, the inhibition is inactive: 3.8%.
As to `CCCC1OP(N)(=O)OCC1CC` (configuration not stated), the inhibition was inactive: -2.8%.
As to `O=[N+]([O-])C1C(O)C(O)C([N+](=O)[O-])C(O)C1O` (configuration not stated), the inhibition was inactive: 8%.
Consider `Oc1ccccc1CNc1ccccn1`, for which the inhibition is inactive: -1.7%.
Regarding `O=C(NC(Sc1ccncn1)C(Cl)(Cl)Cl)c1ccccc1` (configuration not stated), the inhibition was inactive: 1.1%.
The value for `Nc1cc(N)c2nonc2c1[N+](=O)[O-]` was inactive: 17.4%; that for `CC(C)CC(=O)NC(Sc1ccc(Cl)cc1)C(Cl)(Cl)Cl` (configuration not stated) was inactive: -3.1%; that for `CN1CCCC(OC(=O)C(c2ccccc2)c2ccccc2)C1` (configuration not stated) was inactive: 0.8%.
With `Clc1ccc(Cl)c(NC2=NCC(CBr)S2)c1` (configuration not stated), the inhibition was inactive: -0.2%.
`COc1ccccc1OP(=O)(Nc1ccc(C)cn1)Oc1ccccc1OC`: the inhibition is inactive: 0.2%.
With `Cc1ccc(OP(=O)(Nc2nccs2)Oc2ccc(C)cc2)cc1`, the inhibition is inactive: -2.1%.
As to `CN(C(=O)Cc1ccc(Cl)c(Cl)c1)[C@H]1CCCC[C@H]1N1CCCC1`, the inhibition was inactive: 0.7%.
`Cc1ccc(N/C(=N/P(=O)(N2CCOCC2)N2CCOCC2)N2CCOCC2)cc1`: the inhibition was inactive: -2%.
Turning to `NC(=O)c1cc([N+](=O)[O-])cc([N+](=O)[O-])c1N`, the inhibition is inactive: -3.5%.
Regarding `CC1CCN(C(=O)Oc2c(Cl)cc(Cl)c3cccnc23)CC1`, the inhibition was inactive: 0.2%.
For the compound `c1cc(-c2nn[nH]n2)ccc1-c1nn[nH]n1`, the inhibition is inactive: -0.3%.
Take `CC(C)c1nc(Nc2ccccc2)n(P(=O)(N(C)C)N(C)C)n1`: the inhibition is inactive: -4.1%.
As for `CC(C)=N/N=C(\N)N[N+](=O)[O-]`, the inhibition is inactive: 2.9%.
Regarding `CN(C)C(=O)OCCc1n(C)cc[n+]1C`, the inhibition is inactive: -0.3%.
Take `CCN(/C(=N/P(=O)(N1CCOCC1)N1CCOCC1)N1CCOCC1)c1ccc(OC)cc1`: the inhibition was inactive: -0.3%.
On to `Nc1ccc([As](=O)(O)c2ccc(N)cc2)cc1`, for which the inhibition is inactive: 2.5%.
On to `C[N+]1=C2C=CC=CC=C2SC12C([N+](=O)[O-])=CC([N+](=O)[O-])=C[C-]2[N+](=O)[O-]` (configuration not stated), for which the inhibition was inactive: 24.1%.
Under `Cc1ccc(NP(=O)(Oc2ccccc2)Oc2ccccc2)nc1` stands inactive: 1.5%; under `CCc1nc2c(n1)c1c(non1O)c1c2no[n+]1[O-]`, inactive: 3%.
Regarding `O=[N+]([O-])c1cc([N+](=O)[O-])c(CCNc2ccccc2)c([N+](=O)[O-])c1`, the inhibition is inactive: 0.8%.
For `O=[N+]([O-])c1cccc2n[nH]nc12`, the inhibition was inactive: 6.9%.
Consider `CC(=O)N1C2C3N(C(C)=O)C1C1N(C(C)=O)C(C(N1C(C)=O)N3C(C)=O)N2C(C)=O`, for which the inhibition was inactive: -3%.
Under `COc1ccc(C2=NCC(CBr)S2)cc1` (configuration not stated) stands inactive: -4%.
For `O=C(O)CNc1ccc([As](=O)(O)O)cc1`, the inhibition was inactive: 0.3%.
The value for `COC(=O)C1(C)COP(=O)(Nc2ccccc2)OC1` (configuration not stated) was inactive: 0.6%; that for `O=[N+]([O-])c1cccc(NC2=NCC(CBr)S2)c1` (configuration not stated) was inactive: -1.7%; that for `O=[N+]([O-])c1ncn(CCn2ncnc2[N+](=O)[O-])n1` was inactive: -0.3%.
Consider `CC(C)(C)C(=O)NC(Sc1ccncn1)C(Cl)(Cl)Cl` (configuration not stated), for which the inhibition was inactive: 1.3%.
With `O=C(Nc1cc([As](=O)(O)O)ccc1O)c1ccccc1`, the inhibition is inactive: 2.6%.
With `O=P1(N(CCCl)CCCl)OCCCS1` (configuration not stated), the inhibition was inactive: 0.9%.
With `O=C(OC1CN2CCC1CC2)c1cccc(Cl)c1` (configuration not stated), the inhibition was inactive: 1.9%.
For the compound `C(Cc1nn[nH]n1)Cc1nn[nH]n1`, the inhibition was inactive: -1.3%.
Regarding `Nc1ccc([As](=O)(O)c2ccc([N+](=O)[O-])cc2)cc1`, the inhibition is inactive: 0.2%.
Regarding `O=[As](O)(c1ccccc1)c1ccc(O)cc1`, the inhibition was inactive: -0.3%.
The value for `O=[N+]([O-])c1ccc(O)c(/C=N/Nc2ccc([N+](=O)[O-])cc2[N+](=O)[O-])c1` was inactive: 8.9%; that for `O=[N+]([O-])c1ncn(CCn2cnc([N+](=O)[O-])n2)n1` was inactive: -1.4%.
As for `CC(=O)NC(SC(=S)N(C)C)C(Cl)(Cl)Cl` (configuration not stated), the inhibition was inactive: 1.6%.
Regarding `O=P(Nc1nc2ccccc2s1)(c1ccccc1)c1ccccc1`, the inhibition was inactive: 5.3%.
With `C[C@H]1OP(=O)(Oc2ccccc2)[C@H](O)[C@H](O)[C@H]1N=[N+]=[N-]` (some centres not stated), the inhibition was inactive: -2.2%.
The value for `O=P(Nc1ccccn1)(c1ccc(Br)cc1)c1ccc(Br)cc1` was inactive: -1.9%.
Turning to `CN(C)C1(CNC(=O)c2ccc(Cl)c(S(N)(=O)=O)c2)CCCCC1`, the inhibition was inactive: -5.1%.
Take `COc1ccc(N)c([N+](=O)[O-])c1[N+](=O)[O-]`: the inhibition was inactive: 2.7%.
`Nc1ccc(CCCCOc2ccccc2)cc1`: the inhibition was inactive: 1.7%.
As to `c1nnnn1CCn1cnnn1`, the inhibition is inactive: 3.2%.
For `CC(C)C(=O)NC(Sc1ccccc1)C(Cl)(Cl)Cl` (configuration not stated), the inhibition is inactive: -3.4%.
For the compound `O=P(Nc1nccs1)(c1ccccc1)c1ccccc1`, the inhibition was inactive: 5%.
Consider `CC(=O)Nc1ccc([As](=O)(O)O)c(O)c1`, for which the inhibition is inactive: 3%.
Turning to `CC(=O)Nc1ccc(Oc2c([N+](=O)[O-])cc([N+](=O)[O-])cc2[N+](=O)[O-])cc1`, the inhibition was inactive: 1.3%.
On to `Cc1ccccc1CN(C)C(=O)COC(=O)C(O)(c1ccccc1)c1ccccc1`, for which the inhibition was inactive: -2.1%.
Under `C[C@H]1OP(=O)(Oc2ccccc2)C[C@@H]2O[C@@H]21` (some centres not stated) stands inactive: -1.2%.
Under `C[C@@H]1C=CCP(=O)(Oc2ccccc2)O1` (some centres not stated) stands inactive: -0.4%.
As for `CC(=O)c1ccc(N2CC2c2ccncc2)cc1` (configuration not stated), the inhibition was inactive: -0.4%.
In the case of `N#C/C(=C\c1ccc(N(CCBr)CCBr)cc1)C(N)=O`, the inhibition was inactive: -0.4%.

The record behind these values is PubChem BioAssay AID588621 (Sanford-Burnham Center for Chemical Genomics, 2011).
